Broadly, the solubility is the concentration that dissolves in the medium under given conditions.

Bounds are passed on as bounds.

This data set in a line: Water solubility by quantitative NMR. Type of data set: physicochemical. The following applies: thermodynamic from solid, Table 3, at 20° C. As for the experimental part:
The compound to be tested was dissolved in 100 μl D2O until saturation was reached. Any undissolved compound was filtered off and the filtrate was combined with a standard solution containing a known amount of a calibration compound as an internal reference. The sample is investigated using 1H NMR. […] The solubility of the compound to be tested was then calculated from a relative concentration determination based on the known calibration compound concentration.

`[Br-].[Br-].c1cc[n+]2c(c1)-c1cccc[n+]1CC2` [reference compound] gave a solubility greater than 1500 mM.

The record behind these values is US20250309306A1, “Cationic Viologen Derivatives and Use Thereof in Redox Flow Batteries” (priority 2024, published 2025).
